Yeast mating assay 1: variants of the scFv Ab-14

The measurements come from Engelhart et al. 2022 (doi:10.1038/s41597-022-01779-4) through the FLAb antibody collection.

All variants were tested on one target, the spike HR2 peptide PDVDLGDISGINAS (SARS-CoV-2).

The variants keep the light chain, the linker and the frameworks of Ab-14 (scFv order VH, three GGGGS repeats, VL).
VH: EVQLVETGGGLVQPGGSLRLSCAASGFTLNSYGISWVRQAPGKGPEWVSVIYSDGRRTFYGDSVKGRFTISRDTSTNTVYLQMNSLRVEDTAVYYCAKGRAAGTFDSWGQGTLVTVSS
VL: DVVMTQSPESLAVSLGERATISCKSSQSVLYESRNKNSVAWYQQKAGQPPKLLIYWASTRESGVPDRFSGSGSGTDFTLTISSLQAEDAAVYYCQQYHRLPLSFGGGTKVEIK

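Phage display of a naive human antibody library on the peptide gave the parent. The library (AAYL49) carries one to three amino acid substitutions per variant, with no insertions or deletions. The scFvs were displayed on barcoded MATa yeast, the peptide on MATalpha yeast. Mating (16 h, 30 °C) was followed by selection of diploids and sequencing of their barcodes. The ratio of observed to expected reads was calibrated, replicate by replicate, on BCL2-family standards whose Kd was known from biolayer interferometry. The assay was run in three technical replicates.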

Sequences are complete VH domains. The read-out is the apparent dissociation constant on a log10 scale (nM): the lower, the stronger. A mean of the replicates is given; it leaves out those without a signal. A pair that was not seen in any replicate is written "nd"; this usually means weak binding, but a binder can also be missed.

| log10 Kd (nM), mean | replicates with signal | VH |
|---|---|---|
| 3.97 | 1 of 3 | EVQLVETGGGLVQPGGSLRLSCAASGFTLNSYGESWVRQAPGKGPEWVSGIYSFGRRTFYGDSVKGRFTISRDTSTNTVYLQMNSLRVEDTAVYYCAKGRAAGTFDSWGQGTLVTVSS |
| 4.27 | 1 of 3 | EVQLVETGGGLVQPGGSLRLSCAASGFCLNSYGISWVRQAPGKGPEWVSVAYSAGRRTFYGDSVKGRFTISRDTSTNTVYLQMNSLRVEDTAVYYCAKGRAAGTFDSWGQGTLVTVSS |
| 4.21 | 3 of 3 | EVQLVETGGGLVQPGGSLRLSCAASGTTLNSYGISWVRQAPGKGPEWVSVIYGDGRRTFYDDSVKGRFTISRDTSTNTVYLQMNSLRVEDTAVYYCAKGRAAGTFDSWGQGTLVTVSS |
| nd | 0 of 3 | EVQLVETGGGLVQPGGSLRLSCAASGFTLNSYGWSWVRQAPGKGPEWVSVIYSDGRRTFDGDSVKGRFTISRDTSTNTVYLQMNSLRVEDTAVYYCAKGRAAGKFDSWGQGTLVTVSS |
| nd | 0 of 3 | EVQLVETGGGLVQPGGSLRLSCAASGFTLNSYCISWVRQAPGKGPEWVSVIYSDGRRTFYGDSVGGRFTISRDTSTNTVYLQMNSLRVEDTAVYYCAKGRACGTFDSWGQGTLVTVSS |
| nd | 0 of 3 | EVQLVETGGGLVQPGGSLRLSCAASGFTLNSYGISWVRQAPGKGPEWVSVIYSDGRRTFYGDSYMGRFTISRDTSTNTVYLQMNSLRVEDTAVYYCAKGRADGTFDSWGQGTLVTVSS |
| 3.98 | 1 of 3 | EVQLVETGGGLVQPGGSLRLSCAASGFTLNSYGPSWVRQAPGKGPEWVSVIDSDGRRTRYGDSVKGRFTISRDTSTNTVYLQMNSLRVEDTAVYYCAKGRAAGTFDSWGQGTLVTVSS |
| nd | 0 of 3 | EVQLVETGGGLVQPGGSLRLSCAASGFTNNSYGISWVRQAPGKGPEWVSVIYSDGRRTDYGDSVKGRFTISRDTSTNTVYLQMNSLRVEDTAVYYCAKGRAEGTFDSWGQGTLVTVSS |
| 4.76 | 2 of 3 | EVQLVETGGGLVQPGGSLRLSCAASGFTLNTYGISWVRQAPGKGPEWVSVIYSDGRCTFYGDSVKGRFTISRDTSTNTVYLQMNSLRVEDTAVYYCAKGRAAGTFDGWGQGTLVTVSS |
| 4.59 | 1 of 3 | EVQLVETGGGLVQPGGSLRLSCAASGFTLNWYGDSWVRQAPGKGPEWVSVIYSCGRRTFYGDSVKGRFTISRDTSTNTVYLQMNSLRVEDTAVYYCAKGRAAGTFDSWGQGTLVTVSS |
| nd | 0 of 3 | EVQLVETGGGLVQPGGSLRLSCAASGFTLNSYPISWVRQAPGKGPEWVSVIYSDGRRTSLGDSVKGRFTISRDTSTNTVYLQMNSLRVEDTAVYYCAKGRAAGTFDSWGQGTLVTVSS |
| nd | 0 of 3 | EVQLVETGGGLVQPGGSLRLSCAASGFTLNSYGISWVRQAPGKGPEWVSVIHSAGRRTFYGDSVKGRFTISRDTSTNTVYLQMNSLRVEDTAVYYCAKGRAAGTFDEWGQGTLVTVSS |
| 3.82 | 1 of 3 | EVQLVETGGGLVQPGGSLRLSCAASGFTLNSQGNSWVRQAPGKGPEWVSVIYSDGRRFFYGDSVKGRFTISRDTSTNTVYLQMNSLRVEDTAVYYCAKGRAAGTFDSWGQGTLVTVSS |
| nd | 0 of 3 | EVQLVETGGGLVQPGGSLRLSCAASGFTLNSYGISWVRQAPGKGPEWVSVIVSDGNRTFYGDSVKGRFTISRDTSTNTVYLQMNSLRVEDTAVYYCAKGRAAGTCDSWGQGTLVTVSS |
| nd | 0 of 3 | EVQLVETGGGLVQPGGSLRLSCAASGFTLNSHGISWVRQAPGKGPEWVSVIYCDGRRTIYGDSVKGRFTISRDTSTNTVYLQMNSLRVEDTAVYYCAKGRAAGTFDSWGQGTLVTVSS |
| 4.41 | 1 of 3 | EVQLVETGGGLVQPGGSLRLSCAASGFTLNSYGWSWVRQAPGKGPEWVSVIYSDGRRTFYGQKVKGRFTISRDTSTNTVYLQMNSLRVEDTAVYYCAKGRAAGTFDSWGQGTLVTVSS |
| nd | 0 of 3 | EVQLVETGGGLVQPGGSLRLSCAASGFTLNSYGISWVRQAPGKGPEWVSVIYSDGRNTYYGDSVKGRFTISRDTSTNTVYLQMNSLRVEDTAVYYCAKGRAAGLFDSWGQGTLVTVSS |
| 4.63 | 1 of 3 | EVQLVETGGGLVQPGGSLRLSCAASGFTLNSYGISWVRQAPGKGPEWVSVIYKDGRRKFYGDSVKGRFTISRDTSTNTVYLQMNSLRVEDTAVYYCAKGFAAGTFDSWGQGTLVTVSS |
| nd | 0 of 3 | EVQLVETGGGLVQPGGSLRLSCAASGFTLNSYGISWVRQAPGKGPEWVSVIYSDGRRTFYGMSVKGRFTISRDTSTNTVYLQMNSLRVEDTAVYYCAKGHAPGTFDSWGQGTLVTVSS |
| nd | 0 of 3 | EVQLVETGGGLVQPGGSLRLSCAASYFTLNSYGISWVRQAPGKGPEWVSVIYSDGRRTFYGDYFKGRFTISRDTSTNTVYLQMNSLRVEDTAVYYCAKGRAAGTFDSWGQGTLVTVSS |
| nd | 0 of 3 | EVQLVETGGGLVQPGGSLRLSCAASGFTLNSYGISWVRQAPGKGPEWVSVIYMDGSRTFYGDSTKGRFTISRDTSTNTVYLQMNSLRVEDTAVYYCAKGRAAGTFDSWGQGTLVTVSS |
| 1.42 | 3 of 3 | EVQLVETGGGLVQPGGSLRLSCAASGFTLNWYGISWVRQAPGKGPEWVSVIYSDGRRTFYGDSVKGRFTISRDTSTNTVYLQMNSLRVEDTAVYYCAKGRHAGTFDSWGQGTLVTVSS |
| nd | 0 of 3 | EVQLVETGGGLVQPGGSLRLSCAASGFVLNSYGISWVRQAPGKGPEWVSVIYSDGRRTFYGDSVKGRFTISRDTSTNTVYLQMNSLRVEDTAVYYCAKGRAAGTWFSWGQGTLVTVSS |
| 4.03 | 2 of 3 | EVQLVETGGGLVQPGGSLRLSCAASGFFLNSYGIGWVRQAPGKGPEWVSVIYSDGRRTCYGDSVKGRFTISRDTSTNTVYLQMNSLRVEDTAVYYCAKGRAAGTFDSWGQGTLVTVSS |

Extract of 3 entries:

| VH | log10 Kd (nM), mean | replicates with signal |
|---|---|---|
| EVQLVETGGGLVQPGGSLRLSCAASGFTLNSQGNSWVRQAPGKGPEWVSVIYSDGRRFFYGDSVKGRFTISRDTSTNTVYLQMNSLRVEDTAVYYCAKGRAAGTFDSWGQGTLVTVSS | 3.82 | 1 of 3 |
| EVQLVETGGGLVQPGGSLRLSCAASGFTLNSYGISWVRQAPGKGPEWVSVIVSDGNRTFYGDSVKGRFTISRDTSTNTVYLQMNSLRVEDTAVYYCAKGRAAGTCDSWGQGTLVTVSS | nd | 0 of 3 |
| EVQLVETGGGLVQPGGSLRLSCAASGFTLNSYGISWVRQAPGKGPEWVSVIYSDGRRTFYGMSVKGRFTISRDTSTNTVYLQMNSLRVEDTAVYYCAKGHAPGTFDSWGQGTLVTVSS | nd | 0 of 3 |

Three control strains display no target. For library AAYL49, 15% of the pairings with them gave a signal, with a median of 4.06 and one signal in twenty below 2.83, so weak values seen in few replicates may be background.